Molecular target: High affinity choline transporter 1 (Mus musculus, UniProt Q8BGY9)
Experiment: In vitro ability to inhibit the transport of [3H]choline in to high affinity choline transport system HAChT

Protein sequences, listed by entry. Tags and fused reporters are not part of them. Lines headed by an entry give the natural chain unless they say otherwise; changes in a name come on top.
UniProt Q8BGY9: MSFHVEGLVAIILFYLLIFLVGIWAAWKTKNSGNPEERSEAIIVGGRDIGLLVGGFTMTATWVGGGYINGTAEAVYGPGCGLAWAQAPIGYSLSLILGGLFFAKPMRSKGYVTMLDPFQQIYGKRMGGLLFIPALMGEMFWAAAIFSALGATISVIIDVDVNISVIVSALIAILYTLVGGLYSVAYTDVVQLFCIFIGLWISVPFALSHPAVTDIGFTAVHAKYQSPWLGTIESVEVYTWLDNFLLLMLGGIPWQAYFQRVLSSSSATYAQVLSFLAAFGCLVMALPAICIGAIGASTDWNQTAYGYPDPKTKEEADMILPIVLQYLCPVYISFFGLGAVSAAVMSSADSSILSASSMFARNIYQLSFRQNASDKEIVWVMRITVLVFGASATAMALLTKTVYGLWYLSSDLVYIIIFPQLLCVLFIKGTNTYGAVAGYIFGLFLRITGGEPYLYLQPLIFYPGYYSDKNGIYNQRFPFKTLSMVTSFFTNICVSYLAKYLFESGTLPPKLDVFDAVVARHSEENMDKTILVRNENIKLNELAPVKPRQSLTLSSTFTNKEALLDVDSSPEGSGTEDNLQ

`OCC[N+]1(C2CC2)CC1` showed an IC50 of 3.9 µM.

From ChEMBL document CHEMBL1123414, “Neurochemistry of aging. 1. Toxins for an animal model of Alzheimer's disease” (J Med Chem, 1986)
